# This is a selection: effects in other tests are not listed, and their absence says nothing.
# Key:
# [1] = tested on: NCI-H460; assay: Cytotoxicity against human H460 cells after 24 hrs by MTT assay
# [2] = tested on: A-375; assay: Cytotoxicity against human A375 cells after 24 hrs by MTT assay
Structure (SMILES),CC50 [1] [µM],CC50 [2] [µM]
CCCCCCCC(=O)O[C@H]1[C@@H](C(=O)O)CCC[C@@H]1N(CCCl)CCCl,> 1000,
CCCCCCCCCCCCCCCC(=O)O[C@H]1[C@@H](C(=O)O)CCC[C@@H]1N(CCCl)CCCl,298,311

# Reference: ChEMBL document CHEMBL1240457, “Synthesis and biological evaluation of cyclic nitrogen mustards based on carnitine framework” (2010)
